The values that follow come from PubChem BioAssay AID651636 (Sanford-Burnham Center for Chemical Genomics, 2012).

Protein sequences, listed by entry. Tags and fused reporters are not part of them.
UniProt P32249, whole entry: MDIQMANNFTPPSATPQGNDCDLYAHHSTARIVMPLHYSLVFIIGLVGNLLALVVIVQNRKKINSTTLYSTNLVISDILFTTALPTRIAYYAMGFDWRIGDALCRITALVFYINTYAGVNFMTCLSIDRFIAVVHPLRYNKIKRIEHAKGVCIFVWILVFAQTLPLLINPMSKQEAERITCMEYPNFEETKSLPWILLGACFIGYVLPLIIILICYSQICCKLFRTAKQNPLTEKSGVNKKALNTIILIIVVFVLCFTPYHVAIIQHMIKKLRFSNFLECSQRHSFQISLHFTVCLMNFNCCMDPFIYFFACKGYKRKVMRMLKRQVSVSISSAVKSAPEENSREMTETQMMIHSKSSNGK

SMILES strings stand for the structures. Only a part is listed here, and it is no random draw. The source made the active and inactive calls. No stated cut-off is given here; in the data, active means inhibition above about 38%; inactive means the rest.

The assay concerns the target G-protein coupled receptor 183 (Homo sapiens) (UniProt P32249). The assay can be described thus: EBI2 receptor antagonists, beta-arrestin recruitment, primary screen, cell-based, luminescence, 7a,25-OHC stimulation, uHTS (AID 651636).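 Further: enzyme fragment complementation signal reports receptor beta-arrestin coupling in cells; 0% = agonist plus DMSO wells and 100% = wells without agonist.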 The settings on record: 7a,25-OHC stimulated, at 5 µM, hits give high values. A general note: Recruitment of arrestin is a read-out of receptor activation apart from second messengers.
One may read the inhibition as the change of the read-out against control, counted positive when it falls. For the molecule `CP(=O)(Nc1cccc(Br)c1)Oc1ccccc1` (centres undefined), the inhibition is inactive: -3.3%. Turning to `Cc1cc(C)cc(OP(C)(=O)Nc2ccccn2)c1` (centres undefined), the inhibition is inactive: -10%. In the case of `Cc1ccc(C)c(NP(C)(=O)Oc2ccccc2)c1` (centres undefined) it was inactive: 1.33%; in that of `Cc1cc(C)cc(OP(C)(=O)Nc2ccc(C)cc2C)c1` (centres undefined), inactive: 6.34%. The figure for `CCOC(=O)c1ccc(NP(C)(=O)Oc2cc(C)cc(C)c2)cc1` (centres undefined) is inactive: -14.7%; for `COc1ccccc1OP(C)(=O)Nc1cccc(Br)c1` (centres undefined) it is inactive: 1.66%. The figure for `CC1=NCCc2c1[nH]c1ccccc21.O=[N+]([O-])c1cc([N+](=O)[O-])c(O)c([N+](=O)[O-])c1` is inactive: -5.91%. Consider `O=C(O)c1cccc(Nc2c([N+](=O)[O-])cc([N+](=O)[O-])cc2[N+](=O)[O-])c1`, for which the inhibition is inactive: 14.6%.

`CP(=O)(Nc1ccc(SC(F)(F)F)cc1)Oc1ccccc1` (centres undefined): the inhibition is inactive: 0.457%. `CCCOc1ccc(NP(C)(=O)Oc2ccc(Cl)cc2)cc1` (centres undefined): the inhibition is inactive: -5.16%. In the case of `COc1ccc(-c2ccccn2)cc1.O=[N+]([O-])c1cc([N+](=O)[O-])c(O)c([N+](=O)[O-])c1` it was inactive: 5.62%; in that of `CN1CCCCC1COC(=O)C1(O)c2ccccc2CCc2ccccc21` (centres undefined), inactive: 0.82%. On to `COc1ccccc1OP(C)(=O)Nc1c(C)cccc1C` (centres undefined), for which the inhibition was inactive: -1.37%. Regarding `CCOC(=O)C(CC)C1=NC(C)(C)Cc2ccccc21.O=[N+]([O-])c1cc([N+](=O)[O-])c(O)c([N+](=O)[O-])c1` (centres undefined), the inhibition is inactive: 2.47%. The figure for `O=[N+]([O-])c1cc([N+](=O)[O-])c(Nc2nnnn2CCO)c([N+](=O)[O-])c1` is inactive: 8.15%; for `CC1=C2N=C(C=C3N=C(C(C)=C4[N-][C@@](C)([C@@H]5N=C1[C@](C)(CCC(=O)NC[C@@H](C)OP(=O)([O-])O[C@H]1[C@@H](O)[C@@H](n6cnc7cc(C)c(C)cc76)O[C@@H]1CO)[C@H]5CC(N)=O)[C@@](C)(CC(N)=O)[C@@H]4CCC(N)=O)[C@@](C)(CC(N)=O)[C@@H]3CCC(N)=O)C(C)(C)[C@@H]2CCC(N)=O.[C-]#N.[Co+3]` it is inactive: 4.97%; for `Cc1nc2ccc3ccccc3c2s1.O=[N+]([O-])c1cc([N+](=O)[O-])c(O)c([N+](=O)[O-])c1` it is inactive: 4.78%. In the case of `O=[N+]([O-])c1cc([N+](=O)[O-])c(-c2cnn(-c3ccccc3)c2)c([N+](=O)[O-])c1` it was inactive: 18.6%; in that of `CN(Cc1cccnc1)C(=O)COc1ccc(Cl)c(Cl)c1.O=[N+]([O-])c1cc([N+](=O)[O-])c(O)c([N+](=O)[O-])c1`, active: 46.9%. For the molecule `O=[N+]([O-])c1cc([N+](=O)[O-])c(-n2nnc3ccccc32)c([N+](=O)[O-])c1`, the inhibition was inactive: -5.51%. In the case of `CP(=O)(Nc1ccccn1)Oc1ccc(Cl)cc1` (centres undefined) it was inactive: -8.12%; in that of `CCOP(C)(=S)SCC(=O)NC(C)C(=O)O` (centres undefined), inactive: 5.09%. As for `O=[N+]([O-])c1cc([N+](=O)[O-])c(O)c([N+](=O)[O-])c1.c1ccc(Oc2ccncc2)cc1`, the inhibition was inactive: 4.32%.

For `CCOC(=O)c1ccc(NP(C)(=O)Oc2ccc(OC)cc2)cc1` (centres undefined), the inhibition was inactive: -7.18%. `Cc1cc(C)cc(OP(C)(=O)Nc2ccc(SC(F)(F)F)cc2)c1` (centres undefined): the inhibition is inactive: -8.1%.

For `CCc1ccc(OP(C)(=O)N2CCN(c3ccc([N+](=O)[O-])cc3)CC2)cc1` (centres undefined), the inhibition is inactive: 1.04%. The figure for `CP(=O)(NC(=O)Nc1ccccc1)Oc1ccccc1` (centres undefined) is inactive: -1.04%. In the case of `CP(=O)(Oc1ccccc1)OC(c1ccccc1)C(F)(F)F` (centres undefined) it was inactive: 0.978%. The figure for `CP(=O)(Nc1ccc(SC(F)(F)F)cc1)Oc1ccc(Cl)cc1` (centres undefined) is inactive: 40.9%; for `Cc1ccc(Nc2c([N+](=O)[O-])cc([N+](=O)[O-])cc2[N+](=O)[O-])cc1` it is inactive: -7.75%. In the case of `Cc1cccc(C)c1OP(C)(=O)Nc1ccc(SC(F)(F)F)cc1` (centres undefined), the inhibition is inactive: -5.57%. On to `COc1ccccc1OP(C)(=O)Nc1ccccc1` (centres undefined), for which the inhibition is inactive: -4.4%. In the case of `CP(=O)(Nc1ccccc1Br)Oc1ccccc1` (centres undefined) it was inactive: -9.7%. In the case of `CP(=S)(Nn1cnnc1)Oc1ccccc1` (centres undefined), the inhibition is inactive: -1.82%. For `COc1ccc(OP(C)(=O)Nc2cccc(F)c2)cc1` (centres undefined), the inhibition is inactive: -3.83%.

Regarding `COc1ccccc1OP(C)(=O)Nc1cc(Cl)ccc1C` (centres undefined), the inhibition is inactive: -4.09%. For the molecule `Cc1cc(C)cc(OP(C)(N)=O)c1` (centres undefined), the inhibition is inactive: 5.91%.

Regarding `CCOC(=O)c1ccc(NP(C)(=O)Oc2ccccc2)cc1` (centres undefined), the inhibition was inactive: -11.6%.

Take `Cc1ccc(NP(C)(=O)Oc2ccccc2)c(C)c1` (centres undefined): the inhibition is inactive: -1.29%. Regarding `COc1ccccc1OP(C)(=O)Nc1ccc(C)cc1` (centres undefined), the inhibition was inactive: -0.889%. In the case of `Cc1cccc(C)c1OP(C)(N)=O` (centres undefined) it was inactive: -1.52%; in that of `CC(C)(C)c1ccc(OP(C)(=O)Nc2ccc(SC(F)(F)F)cc2)cc1` (centres undefined), inactive: 12.1%. On to `O=[N+]([O-])c1ccc2c(c1)C=Nc1ccccc1O2`, for which the inhibition is inactive: -0.359%.

With `O=[N+]([O-])c1cc([N+](=O)[O-])c(Nc2cccnc2)c([N+](=O)[O-])c1`, the inhibition was inactive: -12.4%. In the case of `COc1ccccc1-c1ccccn1.O=[N+]([O-])c1cc([N+](=O)[O-])c(O)c([N+](=O)[O-])c1` it was inactive: 5.84%.

`CCN(CC)CCCOC(=O)C(O)(c1ccccc1)c1ccccc1`: the inhibition was inactive: -3.08%. The figure for `CCc1ccc(OP(C)(=O)O)cc1` is inactive: 8.56%; for `COc1ccccc1OP(C)(=O)Nc1ccc(C)cc1C` (centres undefined) it is inactive: 4.07%; for `CP(=O)(Nc1ccccn1)Oc1ccccc1` (centres undefined) it is inactive: 4.83%.
